Only a part is listed here, and it is no random draw. Calls of active or inactive are those of the source. No stated cut-off is given here; in the data, active means inhibition above about 35% (passing the limit was not always enough); inactive means the rest.

Chains of the proteins cited; added tags and fusions are not shown.
UniProt P11940, whole entry, looked up: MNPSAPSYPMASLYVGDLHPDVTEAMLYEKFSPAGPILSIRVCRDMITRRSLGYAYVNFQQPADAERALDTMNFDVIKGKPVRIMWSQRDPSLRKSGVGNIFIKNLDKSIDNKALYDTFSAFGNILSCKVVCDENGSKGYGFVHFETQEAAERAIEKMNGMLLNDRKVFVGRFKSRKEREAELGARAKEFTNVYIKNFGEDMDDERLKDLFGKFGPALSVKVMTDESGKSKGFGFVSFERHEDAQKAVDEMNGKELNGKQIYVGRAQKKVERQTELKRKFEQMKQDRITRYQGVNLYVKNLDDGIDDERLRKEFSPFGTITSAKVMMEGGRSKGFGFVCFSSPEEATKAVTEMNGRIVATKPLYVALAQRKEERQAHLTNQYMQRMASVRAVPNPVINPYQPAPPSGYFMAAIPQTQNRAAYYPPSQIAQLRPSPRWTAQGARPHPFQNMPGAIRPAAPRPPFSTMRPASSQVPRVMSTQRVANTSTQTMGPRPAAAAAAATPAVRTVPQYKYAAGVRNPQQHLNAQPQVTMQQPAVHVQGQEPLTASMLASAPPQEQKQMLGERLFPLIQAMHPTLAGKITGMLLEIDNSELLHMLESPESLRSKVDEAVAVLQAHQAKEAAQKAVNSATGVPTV

One may read the inhibition as the drop in the measured response relative to a control, in per cent.

For the experiment, the target named is Polyadenylate-binding protein 1 (Homo sapiens) (UniProt P11940). Description: PAM2 peptide displacement from PABP1 MLLE – biochemical, fluorescence polarization, FITC-PAM2, GST-MLLE, primary screen (AID 588489).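 Further: plate controls were DMSO wells with GST-MLLE for no effect and wells lacking GST-MLLE protein for full effect.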 The conditions noted are these: at 20 µM, stronger effect = higher value. In general terms: In fluorescence polarisation assays a small probe gives low polarisation when free and higher when bound to something large.
`COc1ccc(C2=NCC(CBr)S2)cc1` (stereo not given): the inhibition was inactive: 31.1%.
For the compound `Cc1ccc(NP(=O)(Oc2ccccc2)Oc2ccccc2)nc1`, the inhibition was inactive: 22%.
For `CCc1nc2c(n1)c1c(non1O)c1c2no[n+]1[O-]`, the inhibition was inactive: -7.97%.
To `O=[N+]([O-])c1cc([N+](=O)[O-])c(CCNc2ccccc2)c([N+](=O)[O-])c1` belongs inactive: -7.48%; to `O=[N+]([O-])c1cccc2n[nH]nc12`, inactive: 4.89%; to `CC(=O)N1C2C3N(C(C)=O)C1C1N(C(C)=O)C(C(N1C(C)=O)N3C(C)=O)N2C(C)=O`, inactive: -3.78%.
Then `CCN(/C(=N/P(=O)(N1CCOCC1)N1CCOCC1)N1CCOCC1)c1ccc(OC)cc1`, with inactive: -6%.
As to `Nc1ccc([As](=O)(O)c2ccc(N)cc2)cc1`, the inhibition is inactive: 14.9%.
Consider `C[N+]1=C2C=CC=CC=C2SC12C([N+](=O)[O-])=CC([N+](=O)[O-])=C[C-]2[N+](=O)[O-]` (stereo not given), for which the inhibition was inactive: 32.9%.
As to `c1cc(-c2nn[nH]n2)ccc1-c1nn[nH]n1`, the inhibition is inactive: 0.49%.
On to `CC1CCN(C(=O)Oc2c(Cl)cc(Cl)c3cccnc23)CC1`, for which the inhibition was inactive: 0.56%.
Then `CC(C)=N/N=C(\N)N[N+](=O)[O-]`, with inactive: -3.36%.
Then `CC(C)c1nc(Nc2ccccc2)n(P(=O)(N(C)C)N(C)C)n1`, with inactive: -1.11%; and `CN(C)C(=O)OCCc1n(C)cc[n+]1C`, with inactive: 7.36%; and `O=P1(N(CCCl)CCCl)OCCCS1` (stereo not given), with inactive: 6.09%.
With `O=C(Nc1cc([As](=O)(O)O)ccc1O)c1ccccc1`, the inhibition is inactive: 9.31%.
Then `O=[N+]([O-])c1ncn(CCn2ncnc2[N+](=O)[O-])n1`, with inactive: 3.24%; and `CC(C)(C)C(=O)NC(Sc1ccncn1)C(Cl)(Cl)Cl` (stereo not given), with inactive: 30.9%.
To `O=C(O)CNc1ccc([As](=O)(O)O)cc1` belongs inactive: -5.93%; to `O=[N+]([O-])c1cccc(NC2=NCC(CBr)S2)c1` (stereo not given), inactive: 16.9%; to `COC(=O)C1(C)COP(=O)(Nc2ccccc2)OC1` (stereo not given), inactive: 5.63%.
To `CN(C)P(=O)(N(C)C)n1c(Nc2ccccc2)nnc1-c1ccccc1` belongs inactive: -15.5%.
In the case of `O=P(Nc1nc2ccc(Cl)cc2s1)(c1ccccc1)c1ccccc1`, the inhibition was inactive: 6.15%.
As for `O=C(O)c1ccccc1[As](=O)(O)O`, the inhibition was inactive: 5.72%.
As to `CC(=O)Nc1ccc([As](=O)(O)O)cc1`, the inhibition was inactive: 1.45%.
To `CCCC1OP(N)(=O)OCC1CC` (stereo not given) belongs inactive: 0.42%.
For `CCOP(=O)(Nc1ccccc1)OCC`, the inhibition is inactive: -4.25%.
To `Cc1cc(SC(NC(=O)c2ccc(F)cc2)C(Cl)(Cl)Cl)ncn1` (stereo not given) belongs inactive: 19.4%; to `Cc1ccc(NP(=O)(Oc2ccccc2F)Oc2ccccc2F)nc1`, inactive: 16.8%.
To `CN(C(=O)Cc1ccc(Cl)c(Cl)c1)[C@H]1CCCC[C@@H]1N1CCCC1` belongs inactive: 5.2%; to `Nc1cccc2ccc([As](=O)(O)O)cc12`, inactive: 13.2%.
In the case of `CCN(N=Nc1nonc1N)c1nonc1N`, the inhibition was inactive: 5.59%.
With `CN(C(=O)Cc1ccc(Cl)c(Cl)c1)[C@H]1CCCC[C@H]1N1CCCC1`, the inhibition was inactive: -12.7%.
`Cc1ccc(N/C(=N/P(=O)(N2CCOCC2)N2CCOCC2)N2CCOCC2)cc1`: the inhibition is inactive: 2.27%.
In the case of `NC(=O)c1cc([N+](=O)[O-])cc([N+](=O)[O-])c1N`, the inhibition was inactive: -3.67%.
Consider `Clc1ccc(Cl)c(NC2=NCC(CBr)S2)c1` (stereo not given), for which the inhibition was inactive: 8.99%.
Then `CN1CCCC(OC(=O)C(c2ccccc2)c2ccccc2)C1` (stereo not given), with inactive: -9.77%; and `COc1ccccc1OP(=O)(Nc1ccc(C)cn1)Oc1ccccc1OC`, with inactive: -4.52%.
Then `Cc1ccc(OP(=O)(Nc2nccs2)Oc2ccc(C)cc2)cc1`, with inactive: -5.04%; and `Oc1ccccc1CNc1ccccn1`, with inactive: -3.38%; and `O=C(NC(Sc1ccncn1)C(Cl)(Cl)Cl)c1ccccc1` (stereo not given), with inactive: 37%.
With `CC(C)CC(=O)NC(Sc1ccc(Cl)cc1)C(Cl)(Cl)Cl` (stereo not given), the inhibition is inactive: -3.65%.
To `Nc1cc(N)c2nonc2c1[N+](=O)[O-]` belongs inactive: 15.8%; to `O=[N+]([O-])C1C(O)C(O)C([N+](=O)[O-])C(O)C1O` (stereo not given), inactive: 8.91%.
Then `O=P1(Nc2nc3ccc(Cl)cc3s2)COc2ccccc2O1` (stereo not given), with inactive: -8.28%.
Then `CCOc1ccc(C2=NCC(CBr)S2)cc1` (stereo not given), with inactive: 0.04%; and `CC(C)(C)C(=O)NC(Sc1ccccc1)C(Cl)(Cl)Cl` (stereo not given), with inactive: 17.5%; and `CCc1cc(O)c([N+](=O)[O-])c(C)c1[N+](=O)[O-]`, with inactive: -0.89%.
Take `Cc1ccccc1CN(C)C(=O)COC(=O)C(O)(c1ccccc1)c1ccccc1`: the inhibition is inactive: 9.1%.
To `C[C@@H]1C=CCP(=O)(Oc2ccccc2)O1` (stereo not given in full) belongs inactive: 2.86%; to `C[C@H]1OP(=O)(Oc2ccccc2)C[C@@H]2O[C@@H]21` (stereo not given in full), inactive: -3.94%.
In the case of `N#C/C(=C\c1ccc(N(CCBr)CCBr)cc1)C(N)=O`, the inhibition was inactive: -25.2%.
To `CC(=O)c1ccc(N2CC2c2ccncc2)cc1` (stereo not given) belongs inactive: -3.08%; to `COC(=O)C1(C)COP(=O)(NCc2ccccc2)OC1` (stereo not given), inactive: 11.3%.
As to `CC(=O)Nc1ccc([As](=O)(O)O)c(O)c1`, the inhibition is inactive: 8.31%.
As to `CC(=O)Nc1ccc(Oc2c([N+](=O)[O-])cc([N+](=O)[O-])cc2[N+](=O)[O-])cc1`, the inhibition was inactive: -2.91%.
`c1ccc(-c2nn[nH]n2)c(-c2nn[nH]n2)c1`: the inhibition was inactive: -4.53%.
To `Cc1ccc(NP(=O)(Oc2cccc(C)c2)Oc2cccc(C)c2)nc1` belongs inactive: 6.72%; to `CCNC(=S)/N=C(\N)N[N+](=O)[O-]`, inactive: 24.1%; to `O=C(NC1CCS(=O)(=O)C1)NP(=S)(Oc1ccccc1)Oc1ccccc1` (stereo not given), inactive: -2.2%.
To `O=P1(N(CCCl)CCCl)OCCC2CCCCN21` (stereo not given) belongs inactive: -4.17%.
With `O=C(OC1CN2CCC1CC2)c1ccccc1` (stereo not given), the inhibition was inactive: -1.99%.
To `CCC(=O)N1C2C3N(C(=O)CC)C1C1N(C(=O)CC)C(C(N1C(=O)CC)N3C(=O)CC)N2C(=O)CC` belongs inactive: -18.8%; to `COC(=O)c1cc2c(s1)N=C(c1ccccc1)N(C)P2(=O)N1CCOCC1` (stereo not given), inactive: 1.54%.
As for `CC(=O)NC(SC(=S)N(CC(C)C)CC(C)C)C(Cl)(Cl)Cl` (stereo not given), the inhibition was inactive: 9.45%.

Values taken from PubChem BioAssay AID588489 (Sanford-Burnham Center for Chemical Genomics, 2011).
